Literature values, collected in patent publication US20160271085A1, “TREATMENT OF AMYOTROPHIC LATERAL SCLEROSIS WITH LACTATE” (priority 2015, published 2016).

Settings: in vivo

Structure (SMILES): CC(O)C(=O)O (stereo not shown) [lactate]
- lactate in the circulation removed by the liver: approximately 70%
